# In ChEMBL document CHEMBL2218924, “A broad activity screen in support of a chemogenomic map for kinase signalling research and drug discovery” (Biochem J, 2013):
# Protein sequences, listed by entry. Tags and fused reporters are not part of them. Lines headed by an entry give the natural chain unless they say otherwise; changes in a name come on top.
# UniProt P43250, whole entry, looked up: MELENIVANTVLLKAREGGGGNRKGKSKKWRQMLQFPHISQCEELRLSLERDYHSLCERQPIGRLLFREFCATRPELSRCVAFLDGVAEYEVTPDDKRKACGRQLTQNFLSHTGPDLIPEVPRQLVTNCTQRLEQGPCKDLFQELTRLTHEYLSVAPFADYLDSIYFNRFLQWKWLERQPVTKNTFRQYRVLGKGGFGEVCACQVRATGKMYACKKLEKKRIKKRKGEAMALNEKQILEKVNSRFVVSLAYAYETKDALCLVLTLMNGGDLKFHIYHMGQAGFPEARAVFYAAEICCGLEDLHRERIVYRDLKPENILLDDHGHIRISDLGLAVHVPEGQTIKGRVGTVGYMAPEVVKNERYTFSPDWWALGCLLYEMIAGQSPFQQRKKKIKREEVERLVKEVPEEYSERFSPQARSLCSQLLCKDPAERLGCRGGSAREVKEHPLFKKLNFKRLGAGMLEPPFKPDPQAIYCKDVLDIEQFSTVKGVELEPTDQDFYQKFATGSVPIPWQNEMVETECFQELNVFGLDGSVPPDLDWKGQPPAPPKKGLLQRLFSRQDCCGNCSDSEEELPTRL
# UniProt P49840: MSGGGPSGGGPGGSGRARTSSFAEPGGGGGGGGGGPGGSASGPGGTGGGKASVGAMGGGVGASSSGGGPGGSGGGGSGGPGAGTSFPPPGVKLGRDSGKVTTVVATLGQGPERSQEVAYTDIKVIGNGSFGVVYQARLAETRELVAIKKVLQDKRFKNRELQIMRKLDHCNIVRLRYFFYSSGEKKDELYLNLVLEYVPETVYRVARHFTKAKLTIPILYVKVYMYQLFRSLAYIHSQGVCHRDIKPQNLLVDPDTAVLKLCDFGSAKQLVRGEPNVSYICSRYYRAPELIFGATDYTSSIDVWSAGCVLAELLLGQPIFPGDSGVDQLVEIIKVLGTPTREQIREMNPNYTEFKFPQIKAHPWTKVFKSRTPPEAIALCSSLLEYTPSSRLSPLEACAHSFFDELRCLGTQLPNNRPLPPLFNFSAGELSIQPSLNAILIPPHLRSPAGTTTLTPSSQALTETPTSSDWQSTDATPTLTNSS
# UniProt Q86Z02: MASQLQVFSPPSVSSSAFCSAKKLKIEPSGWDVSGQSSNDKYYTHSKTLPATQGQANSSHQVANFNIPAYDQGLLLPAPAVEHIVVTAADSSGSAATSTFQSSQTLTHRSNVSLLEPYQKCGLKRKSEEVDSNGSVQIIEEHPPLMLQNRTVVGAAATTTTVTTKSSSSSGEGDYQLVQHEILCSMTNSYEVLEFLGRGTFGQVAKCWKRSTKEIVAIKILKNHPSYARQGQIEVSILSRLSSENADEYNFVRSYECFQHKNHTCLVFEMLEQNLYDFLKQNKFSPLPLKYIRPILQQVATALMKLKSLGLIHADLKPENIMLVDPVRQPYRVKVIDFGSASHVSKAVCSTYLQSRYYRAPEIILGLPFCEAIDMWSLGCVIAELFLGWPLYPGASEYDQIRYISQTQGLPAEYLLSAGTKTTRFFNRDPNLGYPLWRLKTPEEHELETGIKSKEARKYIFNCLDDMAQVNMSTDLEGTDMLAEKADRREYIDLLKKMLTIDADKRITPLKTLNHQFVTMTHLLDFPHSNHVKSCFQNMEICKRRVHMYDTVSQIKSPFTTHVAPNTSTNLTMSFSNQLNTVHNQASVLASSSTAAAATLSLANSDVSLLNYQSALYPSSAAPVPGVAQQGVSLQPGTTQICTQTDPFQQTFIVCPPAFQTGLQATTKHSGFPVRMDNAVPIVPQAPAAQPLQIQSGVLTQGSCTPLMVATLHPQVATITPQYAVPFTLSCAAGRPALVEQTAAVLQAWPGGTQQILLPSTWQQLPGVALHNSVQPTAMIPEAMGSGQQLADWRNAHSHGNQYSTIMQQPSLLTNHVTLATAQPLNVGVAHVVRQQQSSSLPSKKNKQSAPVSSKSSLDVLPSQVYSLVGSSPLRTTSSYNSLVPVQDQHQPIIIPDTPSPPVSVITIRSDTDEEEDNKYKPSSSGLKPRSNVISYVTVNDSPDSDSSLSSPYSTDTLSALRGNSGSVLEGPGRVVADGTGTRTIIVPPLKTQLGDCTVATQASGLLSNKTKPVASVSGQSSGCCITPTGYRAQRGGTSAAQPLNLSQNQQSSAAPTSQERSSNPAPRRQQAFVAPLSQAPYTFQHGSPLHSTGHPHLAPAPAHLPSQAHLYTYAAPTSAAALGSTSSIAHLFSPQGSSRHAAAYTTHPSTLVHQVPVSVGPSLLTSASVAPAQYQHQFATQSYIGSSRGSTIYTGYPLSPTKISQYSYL
# UniProt Q05513: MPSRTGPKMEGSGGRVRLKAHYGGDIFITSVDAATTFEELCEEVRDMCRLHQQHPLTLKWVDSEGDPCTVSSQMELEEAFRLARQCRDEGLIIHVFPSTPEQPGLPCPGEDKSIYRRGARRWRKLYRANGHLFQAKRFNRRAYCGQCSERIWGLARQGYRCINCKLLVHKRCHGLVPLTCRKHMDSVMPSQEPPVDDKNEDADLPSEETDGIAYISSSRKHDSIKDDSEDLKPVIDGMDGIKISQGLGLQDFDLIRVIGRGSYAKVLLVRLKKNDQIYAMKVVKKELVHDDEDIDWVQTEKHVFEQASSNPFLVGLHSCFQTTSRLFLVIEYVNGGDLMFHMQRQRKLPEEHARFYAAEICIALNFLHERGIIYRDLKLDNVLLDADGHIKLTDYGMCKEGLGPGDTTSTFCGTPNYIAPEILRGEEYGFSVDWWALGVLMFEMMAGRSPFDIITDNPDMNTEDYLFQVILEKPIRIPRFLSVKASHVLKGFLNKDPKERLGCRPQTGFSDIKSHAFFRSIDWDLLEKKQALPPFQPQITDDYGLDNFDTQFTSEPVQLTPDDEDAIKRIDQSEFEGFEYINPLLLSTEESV
# UniProt Q9H4B4: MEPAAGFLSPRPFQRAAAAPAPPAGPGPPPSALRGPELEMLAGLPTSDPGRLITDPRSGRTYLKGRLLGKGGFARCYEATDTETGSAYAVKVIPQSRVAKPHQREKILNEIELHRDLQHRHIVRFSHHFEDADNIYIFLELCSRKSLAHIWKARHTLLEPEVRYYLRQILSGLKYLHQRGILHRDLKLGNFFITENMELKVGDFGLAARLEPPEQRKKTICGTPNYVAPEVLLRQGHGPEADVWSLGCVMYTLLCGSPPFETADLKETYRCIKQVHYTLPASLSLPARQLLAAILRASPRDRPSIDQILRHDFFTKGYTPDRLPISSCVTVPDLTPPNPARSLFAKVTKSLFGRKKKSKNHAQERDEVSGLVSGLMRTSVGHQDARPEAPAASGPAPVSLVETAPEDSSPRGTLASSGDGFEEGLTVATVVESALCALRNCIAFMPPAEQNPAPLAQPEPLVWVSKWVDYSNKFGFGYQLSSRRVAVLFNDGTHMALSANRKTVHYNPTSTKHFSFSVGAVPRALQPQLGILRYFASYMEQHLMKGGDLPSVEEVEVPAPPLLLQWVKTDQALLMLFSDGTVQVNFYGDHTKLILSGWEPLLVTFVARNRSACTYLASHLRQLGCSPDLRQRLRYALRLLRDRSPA
# UniProt P08922: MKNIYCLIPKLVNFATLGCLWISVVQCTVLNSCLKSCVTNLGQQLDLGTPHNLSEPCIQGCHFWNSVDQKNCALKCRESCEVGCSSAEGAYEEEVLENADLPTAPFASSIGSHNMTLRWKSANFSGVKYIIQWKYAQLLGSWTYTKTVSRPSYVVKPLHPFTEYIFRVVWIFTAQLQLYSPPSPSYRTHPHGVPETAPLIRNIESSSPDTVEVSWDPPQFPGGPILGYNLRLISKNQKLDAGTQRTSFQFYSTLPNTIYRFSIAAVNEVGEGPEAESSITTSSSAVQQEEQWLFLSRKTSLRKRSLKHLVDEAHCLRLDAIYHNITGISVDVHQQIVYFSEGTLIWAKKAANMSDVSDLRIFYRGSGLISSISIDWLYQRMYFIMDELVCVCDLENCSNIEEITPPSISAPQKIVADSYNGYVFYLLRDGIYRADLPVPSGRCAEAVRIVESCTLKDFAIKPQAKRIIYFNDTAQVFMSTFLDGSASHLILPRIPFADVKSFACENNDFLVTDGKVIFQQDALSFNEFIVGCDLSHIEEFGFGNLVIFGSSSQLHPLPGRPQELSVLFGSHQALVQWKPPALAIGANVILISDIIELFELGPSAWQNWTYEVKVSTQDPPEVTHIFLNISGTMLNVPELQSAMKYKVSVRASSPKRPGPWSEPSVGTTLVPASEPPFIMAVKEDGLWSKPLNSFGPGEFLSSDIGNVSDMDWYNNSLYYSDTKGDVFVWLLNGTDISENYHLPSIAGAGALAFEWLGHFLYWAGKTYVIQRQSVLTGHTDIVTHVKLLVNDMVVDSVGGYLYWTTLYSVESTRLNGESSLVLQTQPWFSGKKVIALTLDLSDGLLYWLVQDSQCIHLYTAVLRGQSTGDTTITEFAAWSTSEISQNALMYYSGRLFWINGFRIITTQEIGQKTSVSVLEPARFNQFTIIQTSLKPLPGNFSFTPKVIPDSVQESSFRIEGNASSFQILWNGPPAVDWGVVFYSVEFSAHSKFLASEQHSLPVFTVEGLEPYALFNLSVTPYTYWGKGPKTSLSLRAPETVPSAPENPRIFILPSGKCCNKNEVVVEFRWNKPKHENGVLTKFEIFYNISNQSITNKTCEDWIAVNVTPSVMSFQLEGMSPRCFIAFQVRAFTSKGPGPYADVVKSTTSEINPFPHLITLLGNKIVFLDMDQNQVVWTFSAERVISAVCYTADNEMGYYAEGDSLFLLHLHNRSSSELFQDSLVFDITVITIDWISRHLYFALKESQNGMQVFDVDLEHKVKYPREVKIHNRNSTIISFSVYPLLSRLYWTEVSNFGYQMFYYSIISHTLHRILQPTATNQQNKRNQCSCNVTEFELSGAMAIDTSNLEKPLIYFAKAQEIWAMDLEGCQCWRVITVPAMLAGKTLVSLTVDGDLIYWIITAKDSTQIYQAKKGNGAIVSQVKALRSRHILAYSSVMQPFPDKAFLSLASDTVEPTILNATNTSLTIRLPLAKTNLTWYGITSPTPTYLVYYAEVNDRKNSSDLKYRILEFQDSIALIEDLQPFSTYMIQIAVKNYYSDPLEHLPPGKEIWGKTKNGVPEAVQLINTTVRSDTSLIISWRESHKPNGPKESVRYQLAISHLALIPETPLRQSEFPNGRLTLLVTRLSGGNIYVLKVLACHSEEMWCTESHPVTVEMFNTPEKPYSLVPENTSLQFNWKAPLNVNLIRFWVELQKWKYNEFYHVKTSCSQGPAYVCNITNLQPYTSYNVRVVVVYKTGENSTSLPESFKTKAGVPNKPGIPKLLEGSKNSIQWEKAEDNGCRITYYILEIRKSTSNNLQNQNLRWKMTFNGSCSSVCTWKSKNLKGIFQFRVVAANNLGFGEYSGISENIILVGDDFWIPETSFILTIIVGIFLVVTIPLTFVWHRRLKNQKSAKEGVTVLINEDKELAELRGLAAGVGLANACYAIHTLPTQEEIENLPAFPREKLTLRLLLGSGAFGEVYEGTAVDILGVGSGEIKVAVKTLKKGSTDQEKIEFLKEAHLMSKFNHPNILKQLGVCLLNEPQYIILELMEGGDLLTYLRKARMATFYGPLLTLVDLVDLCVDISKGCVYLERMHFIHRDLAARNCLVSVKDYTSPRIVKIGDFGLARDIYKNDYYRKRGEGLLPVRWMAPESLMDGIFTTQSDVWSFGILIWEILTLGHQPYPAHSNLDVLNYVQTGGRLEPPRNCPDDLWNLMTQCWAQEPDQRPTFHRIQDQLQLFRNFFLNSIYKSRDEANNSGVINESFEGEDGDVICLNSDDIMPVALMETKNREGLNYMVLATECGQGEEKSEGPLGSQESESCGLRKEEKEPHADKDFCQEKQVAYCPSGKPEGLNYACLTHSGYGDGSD
# UniProt Q15759, whole entry: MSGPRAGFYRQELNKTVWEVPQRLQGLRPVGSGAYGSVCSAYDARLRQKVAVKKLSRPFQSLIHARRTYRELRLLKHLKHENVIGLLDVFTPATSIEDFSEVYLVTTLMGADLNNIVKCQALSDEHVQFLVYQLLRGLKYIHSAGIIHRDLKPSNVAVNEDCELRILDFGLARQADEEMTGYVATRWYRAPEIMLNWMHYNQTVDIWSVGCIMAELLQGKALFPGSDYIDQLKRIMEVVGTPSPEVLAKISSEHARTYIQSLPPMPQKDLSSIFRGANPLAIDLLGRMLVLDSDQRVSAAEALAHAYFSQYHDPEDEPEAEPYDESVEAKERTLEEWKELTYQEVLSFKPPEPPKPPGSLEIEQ
# For part of these data: The strong results were mostly taken out for another list; the other results follow. How the calls were made is not given here. This is a selection; strong and weak results do not stand in their true shares.
# What was measured:
# [1] = target: G protein-coupled receptor kinase 6 (Homo sapiens) (UniProt P43250); details: at 1 µM
# [2] = target: Glycogen synthase kinase-3 alpha (Homo sapiens) (UniProt P49840); details: at 1 µM
# [3] = target: Homeodomain-interacting protein kinase 1 (Homo sapiens) (UniProt Q86Z02); details: at 1 µM
# [4] = target: Protein kinase C zeta type (Homo sapiens) (UniProt Q05513); details: at 10 µM
# [5] = target: T1, Serine/threonine-protein kinase D2 (Homo sapiens) (UniProt Q9BZL6); details: at 1 µM
# T1 sequence (whole entry): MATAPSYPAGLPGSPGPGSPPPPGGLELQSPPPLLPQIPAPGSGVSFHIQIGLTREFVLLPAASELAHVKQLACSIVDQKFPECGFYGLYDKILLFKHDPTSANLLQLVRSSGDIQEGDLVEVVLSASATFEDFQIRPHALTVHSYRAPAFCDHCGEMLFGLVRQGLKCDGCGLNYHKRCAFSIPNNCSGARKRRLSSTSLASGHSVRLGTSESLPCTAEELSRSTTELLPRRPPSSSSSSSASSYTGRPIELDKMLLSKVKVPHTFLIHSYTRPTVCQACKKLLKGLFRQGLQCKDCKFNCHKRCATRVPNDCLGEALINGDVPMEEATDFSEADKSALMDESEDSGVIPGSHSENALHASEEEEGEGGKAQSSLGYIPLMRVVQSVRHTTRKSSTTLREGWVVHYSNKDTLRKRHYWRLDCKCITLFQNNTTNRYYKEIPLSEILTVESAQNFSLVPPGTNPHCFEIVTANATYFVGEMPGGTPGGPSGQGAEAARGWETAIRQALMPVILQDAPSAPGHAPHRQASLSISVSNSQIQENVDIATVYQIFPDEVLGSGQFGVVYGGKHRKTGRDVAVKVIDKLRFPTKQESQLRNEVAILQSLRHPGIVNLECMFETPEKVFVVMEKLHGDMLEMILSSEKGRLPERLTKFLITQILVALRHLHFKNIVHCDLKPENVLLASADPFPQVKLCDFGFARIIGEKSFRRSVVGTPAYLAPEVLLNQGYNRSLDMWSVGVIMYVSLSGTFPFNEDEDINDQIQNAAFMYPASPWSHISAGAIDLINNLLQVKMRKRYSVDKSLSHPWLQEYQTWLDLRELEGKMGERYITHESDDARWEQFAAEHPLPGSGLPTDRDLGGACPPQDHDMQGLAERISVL
# [6] = target: Serine/threonine-protein kinase pim-3 (Homo sapiens) (UniProt Q86V86); details: at 1 µM
# [7] = target: Serine/threonine-protein kinase pim-3 (Homo sapiens) (UniProt Q86V86); details: at 10 µM
# [8] = target: Serine/threonine-protein kinase PLK3 (Homo sapiens) (UniProt Q9H4B4); details: at 1 µM
# [9] = target: Serine/threonine-protein kinase PLK3 (Homo sapiens) (UniProt Q9H4B4); details: at 10 µM
# [10] = target: Proto-oncogene tyrosine-protein kinase ROS (Homo sapiens) (UniProt P08922); details: at 1 µM
# [11] = target: Proto-oncogene tyrosine-protein kinase ROS (Homo sapiens) (UniProt P08922); details: at 10 µM
# [12] = target: Mitogen-activated protein kinase 11 (Homo sapiens) (UniProt Q15759); details: at 1 µM
# [13] = target: T2, Mitogen-activated protein kinase 12 (Homo sapiens) (UniProt P53778); details: at 1 µM
# T2 sequence (whole entry): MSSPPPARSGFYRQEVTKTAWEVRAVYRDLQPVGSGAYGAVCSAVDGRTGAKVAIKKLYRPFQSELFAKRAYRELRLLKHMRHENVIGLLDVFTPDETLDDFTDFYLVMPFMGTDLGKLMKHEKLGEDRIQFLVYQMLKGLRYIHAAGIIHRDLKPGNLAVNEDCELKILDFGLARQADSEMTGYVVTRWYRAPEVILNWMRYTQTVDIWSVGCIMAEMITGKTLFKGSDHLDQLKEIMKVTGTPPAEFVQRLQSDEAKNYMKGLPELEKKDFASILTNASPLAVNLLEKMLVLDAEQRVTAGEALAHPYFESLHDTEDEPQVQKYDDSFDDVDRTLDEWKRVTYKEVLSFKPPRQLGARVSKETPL
# [14] = target: T2, Mitogen-activated protein kinase 12 (Homo sapiens); details: at 10 µM
# [15] = target: T3, Mitogen-activated protein kinase 13 (Homo sapiens) (UniProt O15264); details: at 10 µM
# T3 sequence (whole entry): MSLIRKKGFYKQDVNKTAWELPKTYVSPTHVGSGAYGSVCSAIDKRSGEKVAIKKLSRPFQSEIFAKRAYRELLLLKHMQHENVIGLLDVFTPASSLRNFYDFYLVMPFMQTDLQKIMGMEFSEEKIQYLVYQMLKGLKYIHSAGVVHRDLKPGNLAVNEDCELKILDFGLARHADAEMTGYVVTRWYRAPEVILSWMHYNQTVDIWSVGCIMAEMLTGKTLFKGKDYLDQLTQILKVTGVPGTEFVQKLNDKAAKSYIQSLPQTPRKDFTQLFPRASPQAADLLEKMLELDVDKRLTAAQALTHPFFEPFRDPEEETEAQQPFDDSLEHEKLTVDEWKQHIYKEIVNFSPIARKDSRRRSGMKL
smiles,measurement,setting,value
O=C(c1cc2cc(O)ccc2[nH]1)c1cc2cc(O)ccc2[nH]1,residual activity,[1],88%
same,residual activity,[2],85%
same,residual activity,[3],99%
same,residual activity,[4],96%
same,residual activity,[5],103%
same,residual activity,[6],84%
same,residual activity,[7],91%
same,residual activity,[8],inactive: 85%
same,residual activity,[9],89%
same,residual activity,[10],93%
same,residual activity,[11],85%
same,residual activity,[12],98%
same,residual activity,[13],94%
same,residual activity,[14],82%
same,residual activity,[15],84%
